The list shows a part of the results, in another mix than the full data. Activity calls are given as the source filed them.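 How the source made its calls: active means inhibition above the campaign mean inhibition plus 3 SD (cut at about 35% in these data); inactive means the rest.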
Target: Glutathione S-transferase omega-1 (Homo sapiens) (UniProt P78417)
Experiment: inhibitors of recombinant GSTO1, primary screen, counter-screen for RBBP9 inhibitor project, biochemical, fluorescence polarization (AID 1974);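 further: 0% = GSTO1-1 with DMSO and 100% = wells lacking GSTO1-1 enzyme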
Conditions: recombinant GSTO1, activity-based probe fluorescence polarization; at 5.96 µM; stronger effect = higher value

Protein sequences, listed by entry. Tags and fused reporters are not part of them.
UniProt P78417, whole entry: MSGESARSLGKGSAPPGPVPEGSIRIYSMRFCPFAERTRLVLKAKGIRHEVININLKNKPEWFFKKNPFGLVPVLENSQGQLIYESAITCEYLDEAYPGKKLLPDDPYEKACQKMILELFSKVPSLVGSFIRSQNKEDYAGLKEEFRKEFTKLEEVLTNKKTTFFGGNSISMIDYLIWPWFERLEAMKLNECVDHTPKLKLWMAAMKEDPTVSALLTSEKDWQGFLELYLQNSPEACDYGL

Row | SMILES | inhibition
1 | N#CC1(Nc2ccccc2)CCN(CCc2ccccc2)CC1 | inactive: 11.5%
2 | CCN1CCC(Nc2ccc(Cl)cc2)CC1 | inactive: 0.02%
3 | O=C(NCC1(N2CCCCC2)CCCCC1)c1cccc([N+](=O)[O-])c1 | inactive: 2.06%
4 | O=C(NCC1(N2CCCCC2)CCCCC1)c1ccc(OC(F)F)cc1 | inactive: -3.95%
5 | COc1cc(C(=O)NCC2(N3CCCCC3)CCCCC2)ccc1OC(F)F | inactive: -0.09%
6 | O=C(NCC1(N2CCOCC2)CCCCC1)c1cc(=O)[nH]c2ccccc12 | inactive: -4.3%
7 | CN1CCN(CCOC(=O)C(O)(c2ccccc2)c2ccccc2)CC1 | inactive: 0.18%
8 | COc1ccc(NC2CCN(C(=O)OC(C)(C)C)CC2)cc1 | inactive: 9.07%
9 | O=C(NCC1(N2CCCCC2)CCCCC1)c1cccc(C(F)(F)F)c1 | inactive: 0.3%
10 | COc1cc(OC)c(C(=O)NCC2(N(C)C)CCCCC2)cc1OC | inactive: 1.63%
11 | CC(C)c1ccc(NC2CCN(C(=O)OC(C)(C)C)CC2)cc1 | inactive: 0.15%
12 | CN(C)c1cccc(C(=O)NCC2(N3CCCCC3)CCCCC2)c1 | inactive: 13%
13 | COc1ccc(CN(CCCl)CCCl)cc1Cl | inactive: -5.83%
14 | CN1CCC(Nc2cccc(F)c2)CC1 | inactive: -1.99%
15 | CSc1ccccc1C(=O)NCC1(N2CCCCC2)CCCCC1 | inactive: 2.05%
16 | COc1ccc(C(=O)NCC2(N3CCCCC3)CCCCC2)c(OC)c1OC | inactive: -1.1%
17 | CC(C)(C)OC(=O)N1CCC(N(C(=O)c2ccccc2)c2ccc(F)cc2)CC1 | inactive: -2.51%
18 | COc1ccc(C(=O)NCC2(N3CCCCC3)CCCCC2)cc1 | inactive: 10.3%
19 | O=C(NCC1(N2CCCCC2)CCCCC1)c1cccs1 | inactive: 6.15%

Row | SMILES | inhibition
20 | O=C(NCC1(N2CCCCC2)CCCCC1)c1ccc(=O)[nH]c1 | inactive: 4.09%
21 | N#CC1(Nc2ccccc2)CCN(Cc2ccccc2)CC1 | inactive: 10.5%
22 | O=C(OC1CN2CCC1CC2)C1c2ccccc2Oc2ccccc21 (stereo unspecified) | inactive: -6.07%
23 | CCOC(=O)N1CCC(Nc2ccc(OC)cc2)CC1 | inactive: -1.38%
24 | Cc1cc(C)cc(N(C(=O)c2ccccc2)C2CCN(C(=O)OC(C)(C)C)CC2)c1 | inactive: 5.98%
25 | O=C(NCC1(N2CCCCC2)CCCCC1)c1ccc(Cl)nc1 | inactive: 7.96%
26 | O=C(NCC1(N2CCOCC2)CCCCC1)c1cc2ccccc2o1 | inactive: 1.65%
27 | COc1ccc(NC2CCN(CCc3ccccc3)CC2)c(OC)c1 | inactive: 0.2%
28 | O=C(NCC1(N2CCCCC2)CCCCC1)c1ccc(F)cc1 | inactive: -3.36%
29 | CCOc1ccc(C)cc1CN(CCCl)CCCl | inactive: -0.98%
30 | Cc1ccc(OCC(C)C)c(CN(CCCl)CCCl)c1 | inactive: 4.51%
31 | CCOC(=O)N1CCC(Nc2cccc(C)c2)CC1 | inactive: 4.06%
32 | Fc1ccccc1NC1CCN(Cc2ccccc2)CC1 | inactive: -8.64%
33 | Cc1ccc(C(=O)NCC2(N3CCCCC3)CCCCC2)o1 | inactive: 4.79%
34 | COc1cc(OC)cc(C(=O)NCC2(N3CCCCC3)CCCCC2)c1 | inactive: 1.33%
35 | CN(C)c1ccc(C(=O)NCC2(N3CCCCC3)CCCCC2)cc1 | inactive: 2.82%
36 | CCN1CCC(Nc2cccc(F)c2)CC1 | inactive: 2.57%
37 | O=C(O)C1(Nc2ccccc2)CCN(Cc2ccccc2)CC1 | inactive: -1.56%
38 | CC(C)(C)OC(=O)N1CCC(Nc2ccccc2)CC1 | inactive: -7.93%

Row | SMILES | inhibition
39 | CCCOc1ccc(C(=O)NCC2(N(C)C)CCCCC2)cc1 | inactive: -0.37%
40 | CN1CCC(Nc2ccc(F)c(Cl)c2)CC1 | inactive: 0.14%
41 | CCOc1ncccc1C(=O)NCC1(N2CCOCC2)CCCCC1 | inactive: 4.72%
42 | CN1CCC(Nc2ccc(Cl)cc2)CC1 | inactive: 2.44%
43 | CCCOc1ccc(C)cc1CN(CCCl)CCCl | inactive: -0.64%
44 | COc1cc(OC)cc(C(=O)NCC2(N3CCOCC3)CCCCC2)c1 | inactive: 5.04%
45 | COc1cccc(C(=O)N(c2cc(C)cc(C)c2)C2CCN(C(=O)OC(C)(C)C)CC2)c1 | inactive: 1.71%
46 | CCC(CO)(C(=O)OC1CN2CCC1CC2)c1ccccc1 (stereo unspecified) | inactive: 0.38%
47 | COc1ccc(C(=O)NCC2(N3CCOCC3)CCCCC2)cc1OC | inactive: 1.44%
48 | CCc1cc(C(=O)NCC2(N3CCCCC3)CCCCC2)sc1C | inactive: -10.2%
49 | O=C(OC1CN2CCC1CC2)C1c2ccccc2C=Cc2ccccc21 (stereo unspecified) | inactive: 5.97%
50 | CCOC(=O)N1CCC(Nc2ccc(C)cc2)CC1 | inactive: 7.15%
51 | N/C(=N\O)c1c(N)no[n+]1[O-] | inactive: 4.2%
52 | N#Cc1ccc(C(=O)NCC2(N3CCCCC3)CCCCC2)cc1 | inactive: -2.63%
53 | CC(C)(C)OC(=O)N1CCC(N(C(=O)c2ccccc2)c2ccc(Cl)cc2)CC1 | inactive: 5.52%
54 | CN(C)C1(CNC(=O)c2cccc(C#N)c2)CCCCC1 | inactive: 1.02%
55 | CCCN1CCC(Nc2cc(OC)cc(OC)c2)CC1 | inactive: 4.28%
56 | c1ccc(CN2CCC(Nc3ccccc3)CC2)cc1 | inactive: 5.41%

Source: PubChem BioAssay AID1974 (The Scripps Research Institute Molecular Screening Center, 2009)
